Assay: Irradiation of ammonium molybdate phosphate powder, 99Mo activity in washes, target and capture matrix
Settings: water, in words
Protocol: Irradiation of ammonium molybdate phosphate solid powder for 15 min at a neutron flux of 8×10^11 n cm^−2 s^−1 yielded the following results (Table 2). Sample 1 is ammonium molybdate phosphate powder irradiated and contacted with water post irradiation for solubility and radioisotope recoil studies. The irradiated sample 1 was washed twice with water (wash 1 and wash 2) to determine separation of the recoiled Molybdenum-99 (^99Mo) and solubility of the Molybdenum compound in the water capture matrix. Wash 1, Wash 2, and the irradiated molybdenum target were all analyzed for ^99Mo activity using gamma spectroscopy at the prominent ^99Mo peak of 141 KeV.
In sample 2 ammonium molybdate phosphate was irradiated in contact with a water capture matrix. Post irradiation the capture matrix was separated from the irradiation target and washed an additional time to determine post irradiation solubility (wash 1). The irradiation target, capture matrix and wash 1 were analyzed via gamma spectroscopy under similar conditions to sample 1.

Substance | solubility in the capture matrix
ammonium molybdate phosphate [Sample 1] | minimally soluble
ammonium molybdate phosphate [Sample 2] | slight solubility
